Source: PubChem
FGF22 binding = binders of human FGF22 protein, primary screen, FGF22 synaptogenesis inhibitor project, biophysical, thermal shift, single point; hit rate 1.5% among 340,000; recombinant FGF22 thermal shift, SYPRO orange fluorescence; percent of sucrose octasulfate shift, DMSO zero; AID 651658, 2012; activity (Tm shift, normalised), % at 9.99 µM; Fibroblast growth factor 22 (Homo sapiens), Q9HCT0;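 active = mean Tm shift, scaled 0 neutral to 100 positive control, at about 1.3% or above, every replicate too, limit read from the data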
Yeast UUG start = alters start codon recognition fidelity in yeast | S. cerevisiae UUG-firefly luciferase reporter, luminescence/redox ratio | activity score, % at 18.7 µM | hit rate 0.13% among 350,000 | AID 602363;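 active means replicate mean at a twofold rise or more, about +100% in these data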;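 further: firefly luciferase made from a UUG start codon reports start codon fidelity; reporter light over untreated wells divided by growth signal over untreated wells; some hits fall short of that in this replicate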
ERp5 inh = inhibitors of ERp5-driven insulin aggregation, primary screen, biochemical, turbidity, absorbance 650 nm, single point; Protein disulfide-isomerase A6 (Homo sapiens), Q15084; 90 min; inhibition, % at 9.99 µM; hit rate 0.05% among 350,000;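 active = mean replicate inhibition above about 25%, with every replicate also reaching it, limit read from the data, passing the limit was not always enough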
PDI turbidity = inhibitors of human PDI, primary screen, biochemical, turbidity, single point, plate reader | PDI insulin aggregation turbidity, A650, 90 min | Protein disulfide-isomerase (Homo sapiens), P07237 | hit rate 0.052% among 350,000 | inhibition, % at 10 µM | AID 588391, 2011;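 active = mean inhibition across replicates of 30% or more, whatever share of single replicates reach that level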
S100A4 inh HTS = inhibitors of S100A4-myosin IIA peptide binding, primary screen, biochemical, fluorescence polarization, TAMRA-MyoIIA peptide | Protein S100-A4 (Homo sapiens), P26447 | inhibition, % at 10.7 µM | hit rate 0.14% among 360,000;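 active = mean inhibition of at least 70% across replicates, with every replicate also reaching that level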
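Material: S100A4 monomer protein / Buffer or medium: 50 mM HEPES pH 7.2, 10 mM CaCl2, 100 mM KCl / Times: 5 min incubation before reading / Benchmarks: neutral control DMSO, positive control TFP / Reagent: labelled myosin peptide probe, 5 nM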
SIRT5 block = SIRT5 desuccinylase inhibitors, primary screen, biochemical, fluorescence imaging, single point, set 5. NAD-dependent protein deacylase sirtuin-5, mitochondrial (Homo sapiens), Q9NXA8. inhibition, % at 15 µM. hit rate 1.1% among 330,000. AID 652115, 2013. Purified SirT5, succinyl-peptide AMC, trypsin-coupled fluorescence; in the data active = inhibition above about 15%
Hits are given with their value; – = inactive; · = no result. Hits are enriched below; roughly 2.2% of the tested compounds scored in any of these assays.

By UniProt entry, the sequences of proteins in these tests, tags left out.
Protein disulfide-isomerase (Homo sapiens), P07237, UniProt P07237, whole entry, looked up: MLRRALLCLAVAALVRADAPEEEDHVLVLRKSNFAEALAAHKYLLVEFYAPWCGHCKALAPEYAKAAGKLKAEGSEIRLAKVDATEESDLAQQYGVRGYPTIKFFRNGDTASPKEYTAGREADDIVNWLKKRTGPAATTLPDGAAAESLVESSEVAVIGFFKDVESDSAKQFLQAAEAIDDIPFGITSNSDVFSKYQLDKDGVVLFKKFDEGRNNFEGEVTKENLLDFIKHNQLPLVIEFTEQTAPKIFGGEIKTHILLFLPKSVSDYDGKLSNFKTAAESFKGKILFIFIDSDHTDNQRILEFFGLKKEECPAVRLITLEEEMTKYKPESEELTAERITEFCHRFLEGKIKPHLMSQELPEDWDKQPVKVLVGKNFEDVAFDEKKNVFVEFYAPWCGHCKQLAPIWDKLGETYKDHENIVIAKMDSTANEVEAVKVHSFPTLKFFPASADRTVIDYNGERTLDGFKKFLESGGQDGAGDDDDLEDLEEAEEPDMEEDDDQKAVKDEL

SMILES	FGF22 binding	Yeast UUG start	ERp5 inh	PDI turbidity	S100A4 inh HTS	SIRT5 block
O=C1c2c(O)cc(O)cc2O[C@@]12c1c(cc(O)c3c1O[C@H](c1ccc(O)cc1)[C@@H](O)C3)O[C@@H]2c1ccc(O)cc1	–	–	–	41.0	–	·
CCCCCCCCN1C(=O)[C@H](CC(=O)NCC2CCCCC2)C[C@@]2(C(=O)OCC)CCC=C12	–	·	–	·	–	21.8
CCCCCCCCN1C(=O)[C@H](CC(=O)NCC2CCCCC2)C[C@@]2(C(=O)OCC)CCCC=C12	–	·	–	·	–	–
CCOC(=O)[C@]12CCC=C1N(Cc1ccc3c(c1)OCO3)C(=O)[C@H](CC(=O)NCc1cccs1)C2	43.5	·	–	·	–	·
C#CCNC(=O)C[C@@H]1C[C@@]2(C(=O)OCC)CCCC=C2N(CCCCCCCC)C1=O	–	·	–	·	–	16.9
CNC(=O)c1ccc(-c2ccc(OC)cc2)s1	·	–	·	–	·	·
COc1ccc(NC(=O)c2ccc(-c3ccc(OC)cc3)s2)cc1	43.3	·	–	–	–	–
O=C(NCc1ccc(Cl)cc1)c1ccc2c(=O)n(CC3CCCO3)c(=S)[nH]c2c1 (stereo unspecified)	–	–	–	–	–	16.0
O=C(NCC1CCCO1)c1ccc2c(=O)n(CC3CCCO3)c(=S)[nH]c2c1 (stereo unspecified)	·	–	·	–	·	·
COC(CNC(=O)c1ccc2c(=O)n(Cc3ccc4c(c3)OCO4)c(=S)[nH]c2c1)OC	–	–	–	–	–	16.0
COCCCNC(=O)c1ccc2c(=O)n(Cc3ccc4c(c3)OCO4)c(=S)[nH]c2c1	·	–	·	–	·	·
COc1ccc(NC(=O)Nc2ccc3c(c2)C(=O)N([C@@H](C)CO)C[C@@H](C)[C@H](CN(C)C(=O)CCCN(C)C)OCCCC[C@@H](C)O3)cc1	–	–	–	·	–	–
COc1ccc2c3c([nH]c2c1)[C@@H](CO)N(C(=O)CN(C)C)CC31CCN(Cc2ccccc2Cl)CC1	–	·	–	·	–	–
CCCN(C(=O)CSc1nnnn1C)C1CCS(=O)(=O)C1 (stereo unspecified)	42.9	·	–	–	–	–
Cc1cc2nnc(SCC(=O)N(C)C3CCS(=O)(=O)C3)n2c2ccccc12 (stereo unspecified)	43.1	·	–	–	–	–
Cc1ccccc1-n1c(C)nnc1SCC(=O)N(C)C1CCS(=O)(=O)C1 (stereo unspecified)	–	·	–	–	–	–
COc1ccc(-n2nnnc2SCC(=O)N(C)C2CCS(=O)(=O)C2)cc1 (stereo unspecified)	43.3	·	–	–	–	·
CCN(C(=O)CSc1nnnn1C)C1CCCCC1	–	–	–	–	–	–
COc1ccc(-c2ccc3n(c2=O)C[C@@H]2[C@@H](CO)[C@H](C(=O)N4CCCCC4)[C@H]3N2C)cc1	–	·	–	·	–	–
CCCNC(=O)N1CCC2(CC1)CN(C(C)=O)[C@H](CO)c1c2c2ccc(OC)cc2n1C	–	·	·	·	·	·
CCCN(C)C[C@@H]1Oc2cc(C#Cc3ccc(F)cc3)ccc2S(=O)(=O)N([C@@H](C)CO)C[C@@H]1C	–	–	–	·	–	–
CCNC(=O)C1CCCN(C(=O)c2ccc(OC)c(OC)c2)CC1 (stereo unspecified)	–	–	–	–	–	16.8
CCOc1cc(C(=O)Nc2cccc(C(C)=O)c2)ccc1OCC(=O)N1CCCCC1	43.8	·	–	–	–	–
CCC(=O)c1ccc(OCC(=O)O)c(OC)c1	–	–	–	–	–	–
CCNC(=O)C1CCCN(C(=O)c2ccc(OC)cc2)CC1 (stereo unspecified)	–	–	–	–	–	–
SMILES	FGF22 binding	Yeast UUG start	ERp5 inh	PDI turbidity	S100A4 inh HTS	SIRT5 block
COc1ccc(C(=O)C2CCCN(C(=O)COc3ccc(C(C)=O)cc3)C2)cc1F (stereo unspecified)	43.7	·	–	–	–	–
CCC(=O)c1ccc(OCC(=O)N2CCCC2)c(OC)c1	44.1	·	–	–	–	–
C[C@H]1CN([C@@H](C)CO)S(=O)(=O)c2ccc(-c3cccc(F)c3)cc2O[C@@H]1CN(C)C(=O)C1CC1	–	–	–	·	–	–
Nc1nc(SCc2ccc(Br)cc2)[nH]c(=O)c1-c1ccccc1	43.1	–	–	–	–	–
Nc1nc(SCc2nc(-c3ccccc3)no2)[nH]c(=O)c1-c1ccccc1	–	–	–	–	–	–
COc1ccc(NC(=O)N(C)C[C@@H]2OCCCC[C@H](C)Oc3ccc(NC(=O)NC(C)C)cc3C(=O)N([C@H](C)CO)C[C@@H]2C)cc1	–	–	–	·	–	–
O=C(C1CCCCC1)N1CC2(C1)[C@H](c1ccccc1)[C@@H](CO)N2Cc1ccccc1F	–	·	–	·	–	–
O=C(O)C1=CCC(c2ccc(Cl)c(Cl)c2)N(S(=O)(=O)c2ccc(F)cc2)C1c1cccc(F)c1 (stereo unspecified)	43.4	·	–	·	–	·
Cc1ccc(S(=O)(=O)N2[C@@H](c3ccc(F)cc3)C(C(=O)O)=CC[C@H]2c2cccc(Cl)c2)cc1	–	–	–	–	–	·
Cc1ccc(S(=O)(=O)N2[C@@H](c3ccc(C(C)(C)C)cc3)C(C(=O)O)=CC[C@H]2c2ccc(Cl)c(Cl)c2)cc1	–	–	–	–	–	15.7
CCN1C(=O)/C(=C2/Sc3ccccc3N2CC)S/C1=N\c1ncn[nH]1	43.6	–	–	–	–	–
COc1ccc(COC[C@@]23Oc4ccccc4[C@@H](NC(=O)N2C)[C@H]3CO)cc1	–	–	–	·	–	–
C[C@@H]1CN([C@H](C)CO)C(=O)c2cc(N(C)C)ccc2O[C@H]1CN(C)S(=O)(=O)c1ccccc1	–	–	–	·	–	32.5
C[C@H](CO)N1C[C@H](C)[C@@H](CN(C)S(=O)(=O)c2ccccc2)Oc2c(cccc2N(C)C)C1=O	–	–	–	–	–	25.0
CC1=[N+](C)N(c2ccccc2)C(=O)C1N=Cc1c(Cl)cccc1Cl (stereo unspecified)	43.2	–	–	–	–	–
O=C(Nc1ccc(Cl)cc1)N1C[C@@H]2[C@H](c3ccccc31)[C@H](CO)N2CC1CCCCC1	–	–	–	·	–	–
CC(C)NC(=O)Nc1ccc2c(c1)C(=O)N([C@@H](C)CO)C[C@@H](C)[C@H](CN(C)Cc1ccc(C(=O)O)cc1)OCCCC[C@H](C)O2	1.6	–	–	·	–	–
CC(C)NC(=O)Nc1ccc2c(c1)C(=O)N([C@H](C)CO)C[C@@H](C)[C@@H](CN(C)Cc1ccc(C(F)(F)F)cc1)OCCCC[C@H](C)O2	–	–	–	·	–	–
